Data on 14 molecules can be found in US9611224B2 (Hoffmann-La Roche Inc., priority 2012, dated 2017).

Structures can show the parent of a compound that is named as a salt.

In the assay the target is BIR3 domain of XIAP (Homo sapiens (Human), UniProt P98170). Kind of assay: TR-FRET assay for BIR3 (inhibition of binding to Peptide A). To be noted: 6x His-tagged BIR3 domain (aa 241-356 of XIAP), 20 nM Peptide A, 10 concentrations.
A word on the IC50: it is the midpoint of a concentration-inhibition curve. Lower therefore signals greater potency. Molecule `CN[C@@H](C)C(=O)N[C@H]1CCc2ccccc2N(Cc2c(OC)ccc3cc(Cl)ccc23)C1=O` [Example 66, (S)—N—((S)-1-((6-Chloro-2-methoxynaphthalen-1-yl)methyl)-2-oxo-2,3,4,5-tetrahydro-1H-benzo[b]azepin-3-yl)-2-(methylamino)propanamide hydrochloride] gave an IC50 above 54.8 µM.

In the case of `CN[C@@H](C)C(=O)N[C@H]1CCc2ccccc2N(Cc2c(OC)ccc3cc(-c4nc[nH]n4)ccc23)C1=O` [Example 38, (S)—N—{(S)-1-[2-Methoxy-6-(1H-[1,2,4]triazol-3-yl)-naphthalen-1-ylmethyl]-2-oxo-2,3,4,5-tetrahydro-1H-benzo[b]azepin-3-yl}-2-methylamino-propionamide dihydrochloride], the half-inhibitory concentration (IC50) is above 54.8 µM. The molecule `CN[C@@H](C)C(=O)N[C@H]1CCc2ccccc2N(Cc2c(OC)ccc3cc(-c4nnn(C)n4)ccc23)C1=O` [Example 40, (S)—N—{(S)-1-[2-Methoxy-6-(2-methyl-2H-tetrazol-5-yl)-naphthalen-1-ylmethyl]-2-oxo-2,3,4,5-tetrahydro-1H-benzo[b]azepin-3-yl}-2-methylamino-propionamide hydrochloride] showed an IC50 above 54.8 µM. For `CN[C@@H](C)C(=O)N[C@H]1CCc2ccccc2N(Cc2c(OC)ccc3cc(-c4nnn[nH]4)ccc23)C1=O` [Example 39, (S)—N—{(S)-1-[2-Methoxy-6-(1H-tetrazol-5-yl)-naphthalen-1-ylmethyl]-2-oxo-2,3,4,5-tetrahydro-1H-benzo[b]azepin-3-yl}-2-methylamino-propionamide hydrochloride] the value was above 54.8 µM; for `CN[C@@H](C)C(=O)N[C@H]1CCc2ccccc2N(Cc2cccc3c(C4CC4)cccc23)C1=O` [Example 49e, (S)—N—[(S)-1-(5-Cyclopropyl-naphthalen-1-ylmethyl)-2-oxo-2,3,4,5-tetrahydro-1H-benzo[b]azepin-3-yl]-2-methylamino-propionamide hydrochloride], above 54.8 µM. As for `CN[C@@H](C)C(=O)N[C@H]1CCc2ccccc2N(Cc2c(OC)ccc3c(C(C)=O)cccc23)C1=O` [Example 70, (S)—N—((S)-1-((5-Acetyl-2-methoxynaphthalen-1-yl)methyl)-2-oxo-2,3,4,5-tetrahydro-1H-benzo[b]azepin-3-yl)-2-(methylamino)propanamide hydrochloride], the figure is above 54.8 µM; as for `CN[C@@H](C)C(=O)N[C@H]1CCc2ccccc2N(Cc2ccccc2-c2ccccc2)C1=O` [Example 55a, (S)—N-(1-Biphenyl-2-ylmethyl-2-oxo-2,3,4,5-tetrahydro-1H-benzo[b]azepin-3-yl)-2-methylamino-propionamide hydrochloride], above 54.2 µM; as for `CN[C@@H](C)C(=O)N[C@H]1CCc2ccccc2N(Cc2ccc(-c3ccccc3)cc2)C1=O` [Example 55f, (S)—N-(1-Biphenyl-4-ylmethyl-2-oxo-2,3,4,5-tetrahydro-1H-benzo[b]azepin-3-yl)-2-methylamino-propionamide hydrochloride], above 54.2 µM. As for `CN[C@@H](C)C(=O)N[C@H]1CCc2ccccc2N(Cc2c(OC)ccc3cc(-c4nnnn4C)ccc23)C1=O` [Example 41, (S)—N—{(S)-1-[2-Methoxy-6-(1-methyl-1H-tetrazol-5-yl)-naphthalen-1-ylmethyl]-2-oxo-2,3,4,5-tetrahydro-1H-benzo[b]azepin-3-yl}-2-methylamino-propionamide hydrochloride], the figure is above 54.8 µM.

The molecule `CN[C@@H](C)C(=O)N[C@H]1CCc2ccccc2N(CCCc2ccccc2)C1=O` [Example 55h, (S)-2-Methylamino-N-[2-oxo-1-(3-phenyl-propyl)-2,3,4,5-tetrahydro-1H-benzo[b]azepin-3-yl]-propionamide hydrochloride] displayed an IC50 above 54.2 µM.

The molecule `CN[C@@H](C)C(=O)N[C@H]1CCc2ccccc2N(Cc2ccc(C)c(-c3ccccc3)c2)C1=O` [Example 55d, (S)-2-Methylamino-N-[1-(6-methyl-biphenyl-3-ylmethyl)-2-oxo-2,3,4,5-tetrahydro-1H-benzo[b]azepin-3-yl]-propionamide hydrochloride] showed an IC50 of 33.5 µM.

In turn, `CN[C@@H](C)C(=O)N[C@H]1CCc2ccccc2N(Cc2c(OC)cnc3ncccc23)C1=O` [Example 47m, (S)—N—[(S)-1-(3-Methoxy-[1,8]naphthyridin-4-ylmethyl)-2-oxo-2,3,4,5-tetrahydro-1H-benzo[b]azepin-3-yl]-2-methylamino-propionamide hydrochloride] had a half-maximal inhibitory concentration (IC50) above 54.8 µM.

The molecule `CN[C@@H](C)C(=O)N[C@H]1CCc2ccccc2N(Cc2ccccc2)C1=O` [Example 47qq, (S)—N—((S)-1-Benzyl-2-oxo-2,3,4,5-tetrahydro-1H-benzo[b]azepin-3-yl)-2-methylamino-propionamide hydrochloride] showed a 50% inhibitory concentration (IC50) above 54.2 µM. For `CN[C@@H](C)C(=O)N[C@H]1CCc2ccccc2N(Cc2c(OC)ccc3c(-c4nnn[nH]4)cccc23)C1=O` [Example 68, (S)—N—((S)-1-((2-Methoxy-5-(1H-tetrazol-5-yl)naphthalene-1-yl)methyl)-2-oxo-2,3,4,5-tetrahydro-1H-benzo[b]azepin-3-yl)-2-(methylamino)propanamide hydrochloride] the value was above 54.8 µM.
